Laboratory results taken from publication PMC2864113 (Bioorganic & medicinal chemistry letters, 2010).

Amino acid sequences for entries named in this document (tags omitted). Residues count along the entry.
UniProt O42275, 24-633: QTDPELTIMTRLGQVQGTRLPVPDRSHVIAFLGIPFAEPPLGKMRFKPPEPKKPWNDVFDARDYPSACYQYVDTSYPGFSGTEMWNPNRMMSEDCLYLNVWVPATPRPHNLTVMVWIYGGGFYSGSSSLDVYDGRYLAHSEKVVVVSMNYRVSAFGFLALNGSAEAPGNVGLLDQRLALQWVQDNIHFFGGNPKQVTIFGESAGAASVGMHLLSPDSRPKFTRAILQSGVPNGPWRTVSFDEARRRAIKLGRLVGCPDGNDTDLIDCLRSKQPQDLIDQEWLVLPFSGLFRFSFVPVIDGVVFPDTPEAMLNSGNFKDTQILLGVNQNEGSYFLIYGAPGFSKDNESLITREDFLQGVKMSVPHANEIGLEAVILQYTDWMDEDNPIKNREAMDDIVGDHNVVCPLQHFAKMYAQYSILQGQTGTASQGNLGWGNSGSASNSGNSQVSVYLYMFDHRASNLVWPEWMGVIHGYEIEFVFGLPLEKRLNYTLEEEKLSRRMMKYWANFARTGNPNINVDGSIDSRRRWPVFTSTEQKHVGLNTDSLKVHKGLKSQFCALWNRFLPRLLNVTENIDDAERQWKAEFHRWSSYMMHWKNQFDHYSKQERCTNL

Molecular target: AChE (electric eel, EeAChE) (Electrophorus electricus, UniProt O42275)
Type: biochemical
Conditions: read-out: IC50 against AChE

CC(C)Cc1ccc(C(C)C(=O)OCC[Si](C)(C)C)cc1 (stereo not shown) [Compound 10]
IC50: 25.7 ± 4.9 µM
